Experimental data: publication PMC12095788, “Structural and mechanistic profiling of Nurr1 modulation by vidofludimus enables structure-guided ligand design” (Communications Chemistry, 2025)

The chains behind the UniProt entries cited, without tags or fusion partners. Residues count along the entry.
UniProt P43354, 364-598 limits assumed: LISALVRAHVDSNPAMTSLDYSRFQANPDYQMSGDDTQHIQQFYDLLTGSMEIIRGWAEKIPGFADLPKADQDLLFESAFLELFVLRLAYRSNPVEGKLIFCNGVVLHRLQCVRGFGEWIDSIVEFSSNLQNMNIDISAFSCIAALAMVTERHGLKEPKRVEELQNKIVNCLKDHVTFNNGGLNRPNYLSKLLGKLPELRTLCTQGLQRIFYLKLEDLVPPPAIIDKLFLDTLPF

Target: T1, Nurr1 LBD homodimer (Homo sapiens, UniProt P43354)
T1 construct: a plasmid construct encoding Nurr1 (aa 364-598) in a pMal vector system; sGFP-Nurr1 LBD protein and sGFP-RXRα LBD[26] were titrated against a fixed concentration of Tb-SA conjugated Nurr1 LBD protein; MBP (cleaved yes); made in house; host or cells: E.coli BL21-R3-pRARE2 (biotinylated Nurr1 LBD)
Experiment: HTRF Nurr1 homodimer formation assay
Assay type: biochemical

COc1cccc(-c2ccc(NC(=O)C3=C(C(=O)O)CCC3)c(F)c2)c1 [vidofludimus] was tested, and the “effect on Nurr1 homodimerization” value was “strongly reduced”.
